{
  "source": "patent US7132243B2",
  "about": "“Clonal expansion of T cells of unknown specificity and identification of ligand recognized by the clonally expanded T cells” (Juridical Foundation The Chemo-Sero-Therapeutic Research …, priority 2001, dated 2006)",
  "experiment_in_all_cases": "Proliferative response of human T cell clone to X19 peptide library plus IL-2 ([3H]-thymidine incorporation)",
  "format_in_all_cases": "cell-based",
  "key": {"[1]": {"tested_on": "29.15.2 human CD4 T cell clone", "details": "clone 29.15.2 (DR51, Rasp3–20); 20 U/ml IL-2, 250 μM X19, mitomycin C-treated autologous PBMC, 72 h", "method": "(§1) For investigating whether X19 peptide library is capable of stimulating CD4 T cells of various specificities, mitomycin C-treated PBMC, human CD4 T cell clones of various specificities and IL-2 were co-incubated in the presence or absence of X19 peptide library.\n(§2) Human CD4 T cell clones examined in this study included OT1.1 (DP5 restriction; recognition of p53pl53–165 peptide); T31.1 (DP5 restriction; recognition of TEL/AML-1 peptide); DT13.2 (DQ6 restriction; recognition of DerfIp18–31 peptide); SK2.11 (DQ6 restriction; recognition of AchRp75–87 peptide); 29.28.1 (DR8 restriction; recognition of Rasp3–20 peptide); 29.15.2 (DR51 restriction; recognition of Rasp3–20 peptide); MK20.2 (DR53 restriction; recognition of GADp111–131 peptide); HY6.22 (DR4 restriction; recognition of DerfIp82–94 peptide); YT15.1 (DR15 restriction; recognition of BCGap84–100 peptide); SF36.16 (DR4 restriction; recognition of BCGap84–100 peptide); BC20.7 (DR14 restriction; recognition of BCGap84–100 peptide); BC33.5 (DR14 restriction; recognition of BCGap84–100 peptide); and BC42.1 (DR14 restriction; recognition of BCGap84–100 peptide).\n(§3) Each of the human T cell clones was weakly stimulated with radiated corresponding autologous PBMC in the presence of 50 U/ml human recombinant IL-2 and the endogenous peptides recognized by each of the human T cell clones. 2×10^4 cells/well test T cell clone were incubated in 96-well flat bottom culture plate in a culture medium containing 2 mM L-glutamine, 100 U/ml penicillin, 100 μg/ml streptomycin and 10% heat-inactivated self plasma in RPMI 1640 medium, supplemented with 20 U/ml human recombinant IL-2 and 1×10^5 cells/well autologous PBMC treated with mitomycin C, in the presence or absence of 250 μM X19 peptide library. Each clone was incubated for 72 hours wherein 1 μCi/well [^3H]-thymidine was added for the last 16 hours to estimate the effect of X19 peptide library on the enhancement of proliferative response of various human T cell clones. The results are shown in Table 1 which indicates [^3H]-thymidine incorporation after a 3-day culture determined in triplicate. In Table 1, mean cpm values are shown and standard error was less than 20%."}, "[2]": {"tested_on": "29.28.1 human CD4 T cell clone", "details": "clone 29.28.1 (DR8, Rasp3–20); 20 U/ml IL-2, 250 μM X19, mitomycin C-treated autologous PBMC, 72 h", "method": "as §1, §2, §3"}, "[3]": {"tested_on": "BC20.7 human CD4 T cell clone", "details": "clone BC20.7 (DR14, Vβ 13.3, BCGap84–100); 20 U/ml IL-2, 250 μM X19, mitomycin C-treated autologous PBMC, 72 h", "method": "as §1, §2, §3"}, "[4]": {"tested_on": "BC33.5 human CD4 T cell clone", "details": "clone BC33.5 (DR14, Vβ 6.1, BCGap84–100); 20 U/ml IL-2, 250 μM X19, mitomycin C-treated autologous PBMC, 72 h", "method": "as §1, §2, §3"}, "[5]": {"tested_on": "BC42.1 human CD4 T cell clone", "details": "clone BC42.1 (DR14, Vβ 5.4, BCGap84–100); 20 U/ml IL-2, 250 μM X19, mitomycin C-treated autologous PBMC, 72 h", "method": "as §1, §2, §3"}, "[6]": {"tested_on": "DT13.2 human CD4 T cell clone", "details": "clone DT13.2 (DQ6, Der f Ip18–31); 20 U/ml IL-2, 250 μM X19, mitomycin C-treated autologous PBMC, 72 h", "method": "as §1, §2, §3"}, "[7]": {"tested_on": "HY6.22 human CD4 T cell clone", "details": "clone HY6.22 (DR4, Der f Ip82–94); 20 U/ml IL-2, 250 μM X19, mitomycin C-treated autologous PBMC, 72 h", "method": "as §1, §2, §3"}, "[8]": {"tested_on": "MK20.2 human CD4 T cell clone", "details": "clone MK20.2 (DR53, GADp111–131); 20 U/ml IL-2, 250 μM X19, mitomycin C-treated autologous PBMC, 72 h", "method": "as §1, §2, §3"}, "[9]": {"tested_on": "OT1.1 human CD4 T cell clone", "details": "clone OT1.1 (DP5, p53p153–165); 20 U/ml IL-2, 250 μM X19, mitomycin C-treated autologous PBMC, 72 h", "method": "as §1, §2, §3"}, "[10]": {"tested_on": "SF36.16 human CD4 T cell clone", "details": "clone SF36.16 (DR4, BCGap84–100); 20 U/ml IL-2, 250 μM X19, mitomycin C-treated autologous PBMC, 72 h", "method": "as §1, §2, §3"}, "[11]": {"tested_on": "SK2.11 human CD4 T cell clone", "details": "clone SK2.11 (DQ6, AchRp75–87); 20 U/ml IL-2, 250 μM X19, mitomycin C-treated autologous PBMC, 72 h", "method": "as §1, §2, §3"}, "[12]": {"tested_on": "T31.1 human CD4 T cell clone", "details": "clone T31.1 (DP5, TEL/AML-1); 20 U/ml IL-2, 250 μM X19, mitomycin C-treated autologous PBMC, 72 h", "method": "as §1, §2, §3"}, "[13]": {"tested_on": "YT15.1 human CD4 T cell clone", "details": "clone YT15.1 (DR15, BCGap84–100); 20 U/ml IL-2, 250 μM X19, mitomycin C-treated autologous PBMC, 72 h", "method": "as §1, §2, §3"}},
  "data": [
    {"substance": "IL-2: human recombinant IL-2", "values": [
      {"measurement": "Reactivity ([3H]-thymidine incorporation, mean cpm)", "setting": "[1]", "value": "1,280 cpm"},
      {"measurement": "Reactivity ([3H]-thymidine incorporation, mean cpm)", "setting": "[2]", "value": "1,502 cpm"},
      {"measurement": "Reactivity ([3H]-thymidine incorporation, mean cpm)", "setting": "[3]", "value": "1,421 cpm"},
      {"measurement": "Reactivity ([3H]-thymidine incorporation, mean cpm)", "setting": "[4]", "value": "3,201 cpm"},
      {"measurement": "Reactivity ([3H]-thymidine incorporation, mean cpm)", "setting": "[5]", "value": "1,914 cpm"},
      {"measurement": "Reactivity ([3H]-thymidine incorporation, mean cpm)", "setting": "[6]", "value": "1,927 cpm"},
      {"measurement": "Reactivity ([3H]-thymidine incorporation, mean cpm)", "setting": "[7]", "value": "2,005 cpm"},
      {"measurement": "Reactivity ([3H]-thymidine incorporation, mean cpm)", "setting": "[8]", "value": "3,443 cpm"},
      {"measurement": "Reactivity ([3H]-thymidine incorporation, mean cpm)", "setting": "[9]", "value": "2,338 cpm"},
      {"measurement": "Reactivity ([3H]-thymidine incorporation, mean cpm)", "setting": "[10]", "value": "2,407 cpm"},
      {"measurement": "Reactivity ([3H]-thymidine incorporation, mean cpm)", "setting": "[11]", "value": "2,264 cpm"},
      {"measurement": "Reactivity ([3H]-thymidine incorporation, mean cpm)", "setting": "[12]", "value": "1,312 cpm"},
      {"measurement": "Reactivity ([3H]-thymidine incorporation, mean cpm)", "setting": "[13]", "value": "1,729 cpm"}
    ]}
  ]
}
